# Reference: PubChem BioAssay AID652197 (Broad Institute, 2013)
# Sequences of proteins named here, by UniProt entry; tags and fusion partners are left off.
# UniProt Q9NZ08, whole entry: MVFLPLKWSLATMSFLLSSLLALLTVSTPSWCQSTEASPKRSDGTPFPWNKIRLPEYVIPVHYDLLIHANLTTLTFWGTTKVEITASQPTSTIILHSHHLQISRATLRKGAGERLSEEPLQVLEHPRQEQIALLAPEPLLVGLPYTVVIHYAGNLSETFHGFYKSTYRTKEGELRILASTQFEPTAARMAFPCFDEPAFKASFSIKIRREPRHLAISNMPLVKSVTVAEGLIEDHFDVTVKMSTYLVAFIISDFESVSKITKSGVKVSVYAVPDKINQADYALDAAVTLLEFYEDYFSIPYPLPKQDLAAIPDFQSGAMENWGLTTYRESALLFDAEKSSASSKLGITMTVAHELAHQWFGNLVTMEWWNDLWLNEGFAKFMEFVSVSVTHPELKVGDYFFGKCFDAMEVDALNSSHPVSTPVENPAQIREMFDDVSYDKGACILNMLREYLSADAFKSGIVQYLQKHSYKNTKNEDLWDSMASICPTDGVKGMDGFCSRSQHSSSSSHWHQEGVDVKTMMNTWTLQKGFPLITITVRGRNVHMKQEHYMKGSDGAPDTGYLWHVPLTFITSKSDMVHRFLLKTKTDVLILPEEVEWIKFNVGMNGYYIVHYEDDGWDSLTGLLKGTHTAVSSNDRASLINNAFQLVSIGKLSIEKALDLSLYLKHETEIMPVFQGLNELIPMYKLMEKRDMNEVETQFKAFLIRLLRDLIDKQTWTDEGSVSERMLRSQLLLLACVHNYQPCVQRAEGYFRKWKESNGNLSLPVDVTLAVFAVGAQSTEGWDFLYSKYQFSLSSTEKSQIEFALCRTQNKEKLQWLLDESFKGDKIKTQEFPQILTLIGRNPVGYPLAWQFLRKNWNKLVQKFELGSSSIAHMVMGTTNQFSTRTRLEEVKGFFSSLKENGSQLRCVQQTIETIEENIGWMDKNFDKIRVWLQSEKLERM
# The entries are a selection whose mix differs from that of the whole data set. Some results for these compounds are left out of this collection, so the calls shown say nothing about other tests. Active and inactive are the calls of the source.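 How the source made its calls: active means mean replicate inhibition of at least 30%, or all replicates individually reaching that 30% level; inactive means mean below 30% and not every replicate reaching it.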
# Biological target: Endoplasmic reticulum aminopeptidase 1 (Homo sapiens) (UniProt Q9NZ08)
# Assay: inhibition of ERAP1 peptide trimming enzyme – biochemical, single point, plate reader, primary screen (AID 652197);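 further: 0% = neutral control wells and 100% = L-leucinethiol positive control wells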
# Conditions: recombinant ERAP1, Leu-AMC fluorescence, 60 min; at 10.7 µM; stronger effect = higher value
row,Structure (SMILES),inhibition
1,COc1ccc(Br)c(C(=O)NCC2(N3CCCCC3)CCCCC2)c1,inactive: -2.15%
2,C=C(C)C#CC(O)(C(=O)OC1CCN(C)CC1)c1ccccc1 (configuration not stated),inactive: -1.97%
3,CC(C)Oc1ccc(C(=O)NCC2(N(C)C)CCCCC2)cc1,inactive: -0.348%
4,O=C(OCCN1CCCC1)C(O)(c1ccccc1)c1ccccc1,inactive: -1.68%
5,COc1cccc(C(=O)NCC2(N3CCCCC3)CCCCC2)c1,inactive: 0.956%
6,COc1ccc(Cl)cc1C(=O)NCC1(N(C)C)CCCCC1,inactive: -1.73%
7,O=C(NCC1(N2CCCCC2)CCCCC1)c1cccc(Cl)c1,inactive: -3.92%
8,CN(C)C1(CNC(=O)c2ccc(Br)cc2)CCCCC1,inactive: 0.598%
9,COc1cc(C(=O)NCC2(N(C)C)CCCCC2)c([N+](=O)[O-])cc1OC,inactive: -4.77%
10,C=CCN1CCN(CCOC(=O)C(O)(c2ccccc2)c2ccccc2)CC1,inactive: -2.37%
11,O=C(NCC1(N2CCCCC2)CCCCC1)c1cc(F)c(F)cc1Cl,inactive: -2.2%
12,Cc1cc(C(=O)NCC2(N3CCCCC3)CCCCC2)ccc1[N+](=O)[O-],inactive: 0.861%
13,O=C(NCC1(N2CCCCC2)CCCCC1)c1cccc(Br)c1,inactive: -4.2%
14,COc1ccc(C(=O)NCC2(N(C)C)CCCCC2)cc1,inactive: -0.649%
15,Cc1ccccc1C(=O)NCC1(N2CCCCC2)CCCCC1,inactive: -2.55%
16,CN(C)c1ccc(C(=O)NCC2(N(C)C)CCCCC2)cc1,inactive: -0.648%
17,CN(C)C1CCCC1OC(=O)C(O)(c1ccccc1)c1ccccc1 (configuration not stated),inactive: -1.94%
18,CCN(CC)CC(C)C(C)OC(=O)C(O)(c1ccccc1)c1ccccc1 (configuration not stated),inactive: -3.84%
19,COc1cc(SC)ccc1C(=O)NCC1(N(C)C)CCCCC1,inactive: -1.46%
20,Cc1ccc(C(=O)NCC2(N3CCCCC3)CCCCC2)cc1,inactive: -5.5%
21,O=C(NCC1(N2CCCCC2)CCCCC1)c1cc([N+](=O)[O-])ccc1Cl,inactive: 5.34%
22,CN1[C@@H]2CC[C@H]1CC(OC(=O)C(O)(c1ccccc1)c1ccccc1)C2 (some centres not stated),inactive: -2.25%
